Usually IC50 stands for the midpoint of a concentration-inhibition curve.

Assay [1] concerns the target T1, human amylin receptor (amylin 3(a) receptor: human calcitonin receptor with RAMP-3) (human, UniProt P30988 25-474; O60896 24-148, limits assumed).
T1 construct: whole, on cells; Assay V: membranes of the Amylin 3(a)/CRE-luc BHK cells on SPA beads; also called hAmylin-R
T1 sequence (looked up) 1: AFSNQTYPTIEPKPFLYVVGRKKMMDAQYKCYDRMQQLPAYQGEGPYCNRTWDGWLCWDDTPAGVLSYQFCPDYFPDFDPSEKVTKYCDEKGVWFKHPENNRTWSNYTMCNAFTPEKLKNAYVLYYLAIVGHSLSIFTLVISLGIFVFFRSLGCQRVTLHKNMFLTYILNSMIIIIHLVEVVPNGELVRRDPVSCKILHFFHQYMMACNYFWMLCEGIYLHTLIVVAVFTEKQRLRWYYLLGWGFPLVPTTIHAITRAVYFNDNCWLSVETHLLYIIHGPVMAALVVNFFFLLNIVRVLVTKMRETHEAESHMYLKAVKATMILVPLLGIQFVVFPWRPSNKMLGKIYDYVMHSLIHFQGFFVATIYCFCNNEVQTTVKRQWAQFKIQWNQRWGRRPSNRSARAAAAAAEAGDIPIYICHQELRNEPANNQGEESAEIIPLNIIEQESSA
T1 sequence (looked up) 2: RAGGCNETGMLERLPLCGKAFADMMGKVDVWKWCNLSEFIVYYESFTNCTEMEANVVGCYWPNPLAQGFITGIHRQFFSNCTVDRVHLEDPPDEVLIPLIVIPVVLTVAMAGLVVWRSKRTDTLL
Briefly: SPA competition vs 125I-rat amylin, membranes with human CTR + RAMP-3 (Assay V). Here is the method: The binding assay was performed using scintillation proximity assay (SPA) beads (RPNQ0001) from PerkinElmer and cell membranes from the Amylin 3(a)/CRE-luc cells (as described in Assay (II)) were used. Membranes were prepared in the following way; the cells were rinsed with PBS and incubated with Versene for approximately 5 min before harvesting. The cells were flushed with PBS and the cell-suspension was centrifuged for 5 min at 1000 rpm. […] The resulting pellet was resuspended in buffer 2 and protein concentration was tested (BCA protein Assay, Pierce). The homogenate was kept cold during the whole procedure. The membranes were kept at −80° C. until use. The assay was performed in a 384 well Optiplate (PerkinElmer) in a total volume of 40 ul. Membranes were mixed with SPA beads. Final concentration of membranes 35 ng/μL final and SPA beads was 0.05 mg/well. Test-compounds were dissolved in DMSO and further diluted in assay buffer (50 mM Hepes, pH 7.4, 1 mM CaCl2, 5 mM MgCl2, 0.1% OA and 0.02% Tween20). […] Samples were analyzed on TopCounter™ (Packard). The IC₅₀ was calculated using (one site binding competition analysis) GraphPad Prism5 as a measure of receptor affinity.

Assay [2] deals with rat calcitonin receptor (rat) (UniProt P32214). Kind of assay: SPA competition vs 125I-calcitonin, membranes with rat CTR (Assay VIII).

B1: [des1, 27K(C20 diacid-gGlu), 30S, 31G]mimylin (peptide)
peptide: ASELSTAALGRLSAELHELATLPRTKTGSGSP
modifications: C20 diacid-gGlu side chain on the epsilon-amino group of Lys 27 (numbering of SEQ ID NO: 1); C-terminal amide
notes: mimylin derivative; des1 = residue 1 deleted; also called Ex. #55; 55
With B1, the values for the IC50 in assay [1] and in assay [2] were 0.202 nM and 0.027 nM, respectively.

B2: [N-terminal(C20 diacid-gGlu-2xOEG), des1, 4G, 9V, 15Q, 21Q, 23Y, 30S, 31G, 32T, 33Y]mimylin (peptide)
peptide: ASGLSTAVLGRLSQELHELQTYPRTETGSGTY
modifications: C20 diacid-gGlu-2xOEG side chain on the alpha-amino group of the N-terminal residue; C-terminal amide
Consider B2, for which the IC50 in assay [2] was 0.027 nM.

Values taken from patent US20160272683A1 (Novo Nordisk, published 2016).
